Tested on: HepG2
Assay: Selectivity of STAT1 (unknown origin) over STAT3 in human HepG2 cells
Format: cell-based

Oc1ccc(NCc2cc(Cl)ccc2OCc2ccc(Cl)cc2)cc1
Selectivity ratio: > 3

From ChEMBL document CHEMBL2346647, “Identification and characterization of small molecule inhibitors of signal transducer and activator of transcription 3 (STAT3) signaling pathway by virtual screening” (Bioorg Med Chem Lett, 2013)
